Structures can show the parent of a compound that is named as a salt. Where two headings read alike, the source gives them in different places.
Experiments:
SARS-CoV-2 Mac1 [1] = molecular target: T1, SARS-CoV-2 Mac1 (Severe acute respiratory syndrome coronavirus 2, UniProt P0DTD1); assay: biochemical; settings: read-out: %inhibition
SARS-CoV-2 Mac1 [2] = molecular target: T1, SARS-CoV-2 Mac1

Structure (SMILES)	%inhibition (SARS-CoV-2 Mac1 [2]; 100 µM; inhibitor) [%]	further results
CCC1=C[C@@H]2CN(C1)Cc1c([nH]c3ccccc13)[C@@](C(=O)OC)(c1cc3c(cc1OC)N(C)[C@H]1[C@@](O)(C(=O)OC)[C@H](OC(C)=O)[C@]4(CC)C=CCN5CC[C@]31[C@@H]54)C2 [Vinorelbine Tartrate]		inhibition at 100 µM (SARS-CoV-2 Mac1 [1]): 0%
O=P1(N(CCCl)CCCl)NCCCO1 (stereo not shown) [Cyclophosphamide Monohydrate]	0	
Cn1c(CCCC(=O)O)nc2cc(N(CCCl)CCCl)ccc21 [Bendamustine HCl]	62.81	
O=C(O[C@H]1CN2CCC1CC2)N1CCc2ccccc2[C@@H]1c1ccccc1 [Solifenacin succinate]		%inhibition (SARS-CoV-2 Mac1 [2]; 100 µM, inhibitor): 5.887%
O=C(O[C@H]1CN2CCC1CC2)N1CCc2ccccc2[C@@H]1c1ccccc1 [Solifenacin]		%inhibition (SARS-CoV-2 Mac1 [2]; 100 µM, inhibitor): 0%
C[N+]12CCC(CC1)C(OC(=O)C(O)(c1ccccc1)c1ccccc1)C2 (stereo not shown) [Clidinium Bromide]	0	
CC(=O)OC1CN2CCC1CC2 (stereo not shown) [Aceclidine HCl]	0	

From article doi:10.1101/2021.10.07.463234v2 (biorxiv, 2021)
